Assay results as given in ChEMBL document CHEMBL1154777, “Univalent and bivalent ligands of butorphan: characteristics of the linking chain determine the affinity and potency of such opioid ligands” (J Med Chem, 2009).

Organism: Homo sapiens
Assay: Selectivity ratio of Ki for human delta opioid receptor to Ki for human kappa opioid receptor

## Oc1ccc2c(c1)[C@@]13CCCC[C@H]1[C@@H](C2)N(CC1CCC1)CC3
  Ratio Ki: 75
